Experimental findings from US20080152714A1, “Pharmaceutical Formulations” (priority 2005, published 2008) are described below.

What is called Solubility is the concentration that dissolves in the medium under given conditions.

The nature of this data set: Solubility of fenofibric acid salts in water at 25° C. The data set is classed as physicochemical. The method, then: Solubility Determination: Solubility values of fenofibric acid salts in water were determined at 25° C. The salts were weighed into glass vials and water was added. The suspensions were rotated from end to end for about 2 days in a 25° C. water bath. The pH of the suspensions was measured. The residual solid was then removed via filtration through a 0.45 μm PTFE membrane filter. The resulting saturated solution was diluted appropriately into the HPLC mobile phase, and analyzed by the HPLC assay described below (Table 3). The powder x-ray diffraction pattern of the collected residual solid was recorded at the end of experiment.

Turning to Calcium, the Solubility was found to be 360 µg/mL.
